In patent publication US6962920B2, “Pyrimidine derivatives and methods of making and using these derivatives” (Duquesne University of the Holy Ghost, priority 1992, dated 2005):
Where two headings read alike, the source gives them in different places.

By UniProt entry, the sequences of proteins in these tests, tags left out.
UniProt Q920D2, whole entry: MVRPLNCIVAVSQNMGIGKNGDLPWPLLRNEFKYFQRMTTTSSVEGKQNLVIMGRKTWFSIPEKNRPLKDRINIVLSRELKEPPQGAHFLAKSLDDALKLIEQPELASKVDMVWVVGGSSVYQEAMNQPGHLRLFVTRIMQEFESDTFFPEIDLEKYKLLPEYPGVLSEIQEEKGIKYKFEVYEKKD

Columns and labels:
[1] = test system: NCI/ADR-RES; experiment: NCI in vitro anti-cancer activity, breast cancer; conditions: Table 29, Breast Cancer, NCI/ADRRES
[2] = test system: NCI-H460; experiment: NCI in vitro anti-cancer activity, Non-Small Cell Lung Cancer; type: cell-based; conditions: Table 29, Non-Small Cell Lung Cancer
[3] = biological target: RL DHFR (Rattus norvegicus, UniProt Q920D2); experiment: Inhibition of DHFR from rat liver; type: biochemical
[4] = test system: NCI-H522; experiment: NCI in vitro anti-cancer activity, Non-Small Cell Lung Cancer; conditions: Table 29, Non-Small Cell Lung Cancer
[5] = test system: HOP-92; experiment: as above; conditions: Table 29, Non-Small Cell Lung Cancer
[6] = test system: A549/ATCC; experiment: as above; conditions: Table 29, Non-Small Cell Lung Cancer
[7] = test system: NCI-H226; experiment: as above; conditions: Table 29, Non-Small Cell Lung Cancer
[8] = test system: NCI-H23; experiment: as above; conditions: Table 29, Non-Small Cell Lung Cancer
[9] = test system: SK-MEL-2; experiment: NCI in vitro anti-cancer activity, Melanoma; conditions: Table 29, Melanoma
[10] = test system: M14; experiment: NCI in vitro anti-cancer activity, Melanoma; conditions: Table 29, Melanoma
[11] = test system: MALME-3M; experiment: NCI in vitro anti-cancer activity, Melanoma; conditions: Table 29, Melanoma
[12] = test system: UACC-257; experiment: NCI in vitro anti-cancer activity, Melanoma; conditions: Table 29, Melanoma
[13] = test system: SK-MEL-28; experiment: NCI in vitro anti-cancer activity, Melanoma; conditions: Table 29, Melanoma
[14] = test system: LOX IMVI; experiment: NCI in vitro anti-cancer activity, Melanoma; conditions: Table 29, Melanoma
[15] = test system: UACC-62; experiment: NCI in vitro anti-cancer activity, Melanoma; conditions: Table 29, Melanoma
[16] = test system: HT29; experiment: NCI in vitro anti-cancer activity, Colon Cancer; conditions: Table 29, Colon Cancer
[17] = test system: HCT-116; experiment: NCI in vitro anti-cancer activity, Colon Cancer; conditions: Table 29, Colon Cancer
[18] = test system: KM12; experiment: NCI in vitro anti-cancer activity, Colon Cancer; conditions: Table 29, Colon Cancer
[19] = test system: COLO 205; experiment: NCI in vitro anti-cancer activity, Colon Cancer; conditions: Table 29, Colon Cancer
[20] = test system: HCC-2998; experiment: NCI in vitro anti-cancer activity, Colon Cancer; conditions: Table 29, Colon Cancer
[21] = test system: HCT-15; experiment: NCI in vitro anti-cancer activity, Colon Cancer; conditions: Table 29, Colon Cancer
[22] = test system: SW-620; experiment: NCI in vitro anti-cancer activity, Colon Cancer; conditions: Table 29, Colon Cancer
[23] = test system: K-562; experiment: NCI in vitro anti-cancer activity; conditions: Table 29, Leukemia
[24] = test system: SF-295; experiment: NCI in vitro anti-cancer activity, CNS Cancer; conditions: Table 29, CNS Cancer
[25] = test system: SF-268; experiment: NCI in vitro anti-cancer activity, CNS Cancer; conditions: Table 29, CNS Cancer
[26] = test system: U251; experiment: NCI in vitro anti-cancer activity, CNS Cancer; conditions: Table 29, CNS Cancer
[27] = test system: SNB-75; experiment: NCI in vitro anti-cancer activity, CNS Cancer
[28] = test system: SF-539; experiment: NCI in vitro anti-cancer activity, CNS Cancer; conditions: Table 29, CNS Cancer
[29] = test system: SNB-19; experiment: NCI in vitro anti-cancer activity, CNS Cancer; conditions: Table 29, CNS Cancer
[30] = test system: OVCAR-3; experiment: NCI in vitro anti-cancer activity, Ovarian Cancer; conditions: Table 29, Ovarian Cancer
[31] = test system: OVCAR-5; experiment: NCI in vitro anti-cancer activity, Ovarian Cancer; conditions: Table 29, Ovarian Cancer
[32] = test system: OVCAR-4; experiment: NCI in vitro anti-cancer activity, Ovarian Cancer; conditions: Table 29, Ovarian Cancer
[33] = test system: IGROV1; experiment: NCI in vitro anti-cancer activity, Ovarian Cancer; conditions: Table 29, Ovarian Cancer
[34] = test system: SK-OV-3; experiment: NCI in vitro anti-cancer activity, Ovarian Cancer; conditions: Table 29, Ovarian Cancer
[35] = test system: OVCAR-8; experiment: NCI in vitro anti-cancer activity, Ovarian Cancer; conditions: Table 29, Ovarian Cancer
[36] = test system: DU-145; experiment: NCI in vitro anti-cancer activity, Prostate Cancer; conditions: Table 29, Prostate Cancer
[37] = test system: PC-3; experiment: NCI in vitro anti-cancer activity, Prostate Cancer; conditions: Table 29, Prostate Cancer
[38] = test system: TK-10; experiment: NCI in vitro anti-cancer activity, Renal Cancer; conditions: Table 29, Renal Cancer
[39] = test system: RXF 393; experiment: NCI in vitro anti-cancer activity, Renal Cancer; conditions: Table 29, Renal Cancer, RXF 393
[40] = test system: ACHN; experiment: NCI in vitro anti-cancer activity, Renal Cancer; conditions: Table 29, Renal Cancer
[41] = test system: UO-31; experiment: NCI in vitro anti-cancer activity, Renal Cancer; conditions: Table 29, Renal Cancer
[42] = test system: 786-0; experiment: NCI in vitro anti-cancer activity, Renal Cancer; conditions: Table 29, Renal Cancer
[43] = test system: CAKI-1; experiment: NCI in vitro anti-cancer activity, Renal Cancer; conditions: Table 29, Renal Cancer
[44] = test system: SN12C; experiment: NCI in vitro anti-cancer activity, Renal Cancer; conditions: Table 29, Renal Cancer
[45] = test system: SK-MEL-5; experiment: NCI in vitro anti-cancer activity, Melanoma; type: cell-based; conditions: Table 29, Melanoma
[46] = test system: T-47D; experiment: NCI in vitro anti-cancer activity, Breast Cancer; conditions: Table 29, Breast Cancer
[47] = test system: BT-549; experiment: NCI in vitro anti-cancer activity, Breast Cancer; conditions: Table 29, Breast Cancer
[48] = test system: HS 578T; experiment: NCI in vitro anti-cancer activity, Breast Cancer; conditions: Table 29, Breast Cancer
[49] = test system: MDA-N; experiment: NCI in vitro anti-cancer activity, Breast Cancer; conditions: Table 29, Breast Cancer
[50] = test system: MCF7; experiment: NCI in vitro anti-cancer activity, Breast Cancer; conditions: Table 29, Breast Cancer
[51] = test system: MDA-MB-231/ATCC; experiment: NCI in vitro anti-cancer activity, Breast Cancer; conditions: Table 29, Breast Cancer
[52] = test system: MDA-MB-435; experiment: NCI in vitro anti-cancer activity, Breast Cancer; conditions: Table 29, Breast Cancer
[53] = test system: HL-60 (TB); experiment: NCI in vitro anti-cancer activity, Leukemia; conditions: Table 29, Leukemia
[54] = test system: SR; experiment: NCI in vitro anti-cancer activity, Leukemia; conditions: Table 29, Leukemia
[55] = test system: RPMI-8226; experiment: NCI in vitro anti-cancer activity, Leukemia; conditions: Table 29, Leukemia
[56] = test system: MOLT-4; experiment: NCI in vitro anti-cancer activity, Leukemia; conditions: Table 29, Leukemia
[57] = test system: CCRF-CEM; experiment: NCI in vitro anti-cancer activity, Leukemia; conditions: Table 29, Leukemia, CCRF-CEM
[58] = test system: A498; experiment: NCI in vitro anti-cancer activity, renal cancer; conditions: Table 29, Renal Cancer
[59] = test system: EKVX; experiment: NCI in vitro anti-cancer activity, Non-Small Cell Lung Cancer
[60] = read-out: Inhibitory Concentrations (IC50) RL DHFR, Table 26

COc1ccccc1CCc1c[nH]c2nc(N)nc(C)c12
GI50 [1]: 11 µM | GI50 [2]: 13.9 µM | IC50 [3, 60]: 1.8 µM | GI50 [4]: 33.8 µM | GI50 [5]: 40 µM | GI50 [6]: 21.2 µM | GI50 [7]: 35.4 µM | GI50 [8]: 36.8 µM | GI50 [9]: > 100 µM | GI50 [10]: 54 µM | GI50 [11]: 46.9 µM | GI50 [12]: 38.1 µM | GI50 [13]: > 100 µM | GI50 [14]: 41 µM | GI50 [15]: 32 µM | GI50 [16]: 38.4 µM | GI50 [17]: 31.9 µM | GI50 [18]: 34.7 µM | GI50 [19]: 59.9 µM | GI50 [20]: 17.4 µM | GI50 [21]: 20.4 µM | GI50 [22]: 73.4 µM | GI50 [23]: 24.3 µM | GI50 [24]: 35.1 µM | GI50 [25]: 45.5 µM | GI50 [26]: 29.5 µM | GI50 ([27]; Table 29, CNS Cancer, SNB-75): 36.2 µM | GI50 [28]: 38 µM | GI50 [29]: 70.4 µM | GI50 [30]: 83.3 µM | GI50 [31]: > 100 µM | GI50 [32]: 47.9 µM | GI50 [33]: 36.3 µM | GI50 [34]: 76.8 µM | GI50 [35]: 40.2 µM | GI50 [36]: 55.3 µM | GI50 [37]: 27.8 µM | GI50 [38]: 55.1 µM | GI50 [39]: 30.2 µM | GI50 [40]: 37.5 µM | GI50 [41]: 29.4 µM | GI50 [42]: 36.3 µM | GI50 [43]: 55.7 µM | GI50 [44]: 58 µM | GI50 [45]: 29.5 µM | GI50 [46]: 31 µM | GI50 [47]: 18.6 µM | GI50 [48]: 22.3 µM | GI50 [49]: 46.5 µM | GI50 [50]: 33.1 µM | GI50 [51]: 83.1 µM | GI50 [52]: 55.9 µM | GI50 [53]: 23.8 µM | GI50 [54]: 24.3 µM | GI50 [55]: 76.7 µM | GI50 [56]: 19.3 µM | GI50 [57]: 24.2 µM | GI50 [58]: 13.4 µM

Nc1nc2[nH]cc(CNc3cc(Cl)ccc3Cl)c2c(=O)[nH]1
IC50 ([3]; read-out: rlDHFR IC50, Table 22): > 25 µM

COc1cc(CCc2cn(Cc3ccccc3)c3nc(N)nc(C)c23)cc(OC)c1OC
% inhibition RL DHFR ([3]; @ 35 μM): 13% @ | GI50 [13]: 11.5 µM | GI50 [31]: 2.6 µM | GI50 [47]: 7.8 µM

Cc1nc(N)nc2[nH]cc(CCc3ccccc3)c12
GI50 [2]: 34.5 µM | IC50 [3, 60]: 6.4 µM | GI50 [4]: 84 µM | GI50 [5]: 63.4 µM | GI50 [6]: 29.6 µM | GI50 [7]: > 100 µM | GI50 [8]: > 100 µM | GI50 ([59]; Non-Small Cell Lung Cancer): selective | GI50 ([59]; Table 29, Non-Small Cell Lung Cancer): 0.0935 µM | GI50 [9]: > 100 µM | GI50 [10]: 48.3 µM | GI50 [11]: > 100 µM | GI50 [12]: 54.2 µM | GI50 [13]: > 100 µM | GI50 [14]: 51.3 µM | GI50 [15]: > 100 µM | GI50 [16]: 36.7 µM | GI50 [17]: 36 µM | GI50 [18]: 50.6 µM | GI50 [19]: 66.5 µM | GI50 [20]: 69 µM | GI50 [21]: 55.3 µM | GI50 [22]: > 100 µM | GI50 [23]: 48.5 µM | GI50 [24]: 51.2 µM | GI50 [25]: > 100 µM | GI50 [26]: 44 µM | GI50 ([27]; SNB-75, CNS Cancer): selective | GI50 ([27]; Table 29, CNS Cancer, SNB-75): 0.0738 µM | GI50 [28]: > 100 µM | GI50 [29]: > 100 µM | GI50 [30]: > 100 µM | GI50 [31]: > 100 µM | GI50 [32]: 87 µM | GI50 [33]: 59.9 µM | GI50 [34]: > 100 µM | GI50 [35]: 65.6 µM | GI50 [36]: 17.5 µM | GI50 [37]: 33.3 µM | GI50 [38]: 88.7 µM | GI50 [39]: 18.3 µM | GI50 [40]: > 100 µM | GI50 [41]: 21.9 µM | GI50 [42]: 39.8 µM | GI50 [43]: 83.5 µM | GI50 [44]: 27.3 µM | GI50 [45]: 69.1 µM | GI50 [46]: 9.82 µM | GI50 [47]: > 100 µM | GI50 [48]: 5.18 µM | GI50 [49]: 41.1 µM | GI50 [50]: > 100 µM | GI50 [51]: > 100 µM | GI50 [52]: > 100 µM | GI50 [54]: 59.5 µM | GI50 [55]: 60.2 µM | GI50 [56]: 20.6 µM | GI50 [57]: 13.3 µM | GI50 [58]: > 100 µM
